Experimental data reported in patent publication US8710045B2, “Agents for preventing and treating disorders involving modulation of the ryanodine receptors” (The Trustees of Columbia University in the City of New York, priority 2004, dated 2014).

Sequences of proteins named here, by UniProt entry; tags and fusion partners are left off.
UniProt Q92736, whole entry: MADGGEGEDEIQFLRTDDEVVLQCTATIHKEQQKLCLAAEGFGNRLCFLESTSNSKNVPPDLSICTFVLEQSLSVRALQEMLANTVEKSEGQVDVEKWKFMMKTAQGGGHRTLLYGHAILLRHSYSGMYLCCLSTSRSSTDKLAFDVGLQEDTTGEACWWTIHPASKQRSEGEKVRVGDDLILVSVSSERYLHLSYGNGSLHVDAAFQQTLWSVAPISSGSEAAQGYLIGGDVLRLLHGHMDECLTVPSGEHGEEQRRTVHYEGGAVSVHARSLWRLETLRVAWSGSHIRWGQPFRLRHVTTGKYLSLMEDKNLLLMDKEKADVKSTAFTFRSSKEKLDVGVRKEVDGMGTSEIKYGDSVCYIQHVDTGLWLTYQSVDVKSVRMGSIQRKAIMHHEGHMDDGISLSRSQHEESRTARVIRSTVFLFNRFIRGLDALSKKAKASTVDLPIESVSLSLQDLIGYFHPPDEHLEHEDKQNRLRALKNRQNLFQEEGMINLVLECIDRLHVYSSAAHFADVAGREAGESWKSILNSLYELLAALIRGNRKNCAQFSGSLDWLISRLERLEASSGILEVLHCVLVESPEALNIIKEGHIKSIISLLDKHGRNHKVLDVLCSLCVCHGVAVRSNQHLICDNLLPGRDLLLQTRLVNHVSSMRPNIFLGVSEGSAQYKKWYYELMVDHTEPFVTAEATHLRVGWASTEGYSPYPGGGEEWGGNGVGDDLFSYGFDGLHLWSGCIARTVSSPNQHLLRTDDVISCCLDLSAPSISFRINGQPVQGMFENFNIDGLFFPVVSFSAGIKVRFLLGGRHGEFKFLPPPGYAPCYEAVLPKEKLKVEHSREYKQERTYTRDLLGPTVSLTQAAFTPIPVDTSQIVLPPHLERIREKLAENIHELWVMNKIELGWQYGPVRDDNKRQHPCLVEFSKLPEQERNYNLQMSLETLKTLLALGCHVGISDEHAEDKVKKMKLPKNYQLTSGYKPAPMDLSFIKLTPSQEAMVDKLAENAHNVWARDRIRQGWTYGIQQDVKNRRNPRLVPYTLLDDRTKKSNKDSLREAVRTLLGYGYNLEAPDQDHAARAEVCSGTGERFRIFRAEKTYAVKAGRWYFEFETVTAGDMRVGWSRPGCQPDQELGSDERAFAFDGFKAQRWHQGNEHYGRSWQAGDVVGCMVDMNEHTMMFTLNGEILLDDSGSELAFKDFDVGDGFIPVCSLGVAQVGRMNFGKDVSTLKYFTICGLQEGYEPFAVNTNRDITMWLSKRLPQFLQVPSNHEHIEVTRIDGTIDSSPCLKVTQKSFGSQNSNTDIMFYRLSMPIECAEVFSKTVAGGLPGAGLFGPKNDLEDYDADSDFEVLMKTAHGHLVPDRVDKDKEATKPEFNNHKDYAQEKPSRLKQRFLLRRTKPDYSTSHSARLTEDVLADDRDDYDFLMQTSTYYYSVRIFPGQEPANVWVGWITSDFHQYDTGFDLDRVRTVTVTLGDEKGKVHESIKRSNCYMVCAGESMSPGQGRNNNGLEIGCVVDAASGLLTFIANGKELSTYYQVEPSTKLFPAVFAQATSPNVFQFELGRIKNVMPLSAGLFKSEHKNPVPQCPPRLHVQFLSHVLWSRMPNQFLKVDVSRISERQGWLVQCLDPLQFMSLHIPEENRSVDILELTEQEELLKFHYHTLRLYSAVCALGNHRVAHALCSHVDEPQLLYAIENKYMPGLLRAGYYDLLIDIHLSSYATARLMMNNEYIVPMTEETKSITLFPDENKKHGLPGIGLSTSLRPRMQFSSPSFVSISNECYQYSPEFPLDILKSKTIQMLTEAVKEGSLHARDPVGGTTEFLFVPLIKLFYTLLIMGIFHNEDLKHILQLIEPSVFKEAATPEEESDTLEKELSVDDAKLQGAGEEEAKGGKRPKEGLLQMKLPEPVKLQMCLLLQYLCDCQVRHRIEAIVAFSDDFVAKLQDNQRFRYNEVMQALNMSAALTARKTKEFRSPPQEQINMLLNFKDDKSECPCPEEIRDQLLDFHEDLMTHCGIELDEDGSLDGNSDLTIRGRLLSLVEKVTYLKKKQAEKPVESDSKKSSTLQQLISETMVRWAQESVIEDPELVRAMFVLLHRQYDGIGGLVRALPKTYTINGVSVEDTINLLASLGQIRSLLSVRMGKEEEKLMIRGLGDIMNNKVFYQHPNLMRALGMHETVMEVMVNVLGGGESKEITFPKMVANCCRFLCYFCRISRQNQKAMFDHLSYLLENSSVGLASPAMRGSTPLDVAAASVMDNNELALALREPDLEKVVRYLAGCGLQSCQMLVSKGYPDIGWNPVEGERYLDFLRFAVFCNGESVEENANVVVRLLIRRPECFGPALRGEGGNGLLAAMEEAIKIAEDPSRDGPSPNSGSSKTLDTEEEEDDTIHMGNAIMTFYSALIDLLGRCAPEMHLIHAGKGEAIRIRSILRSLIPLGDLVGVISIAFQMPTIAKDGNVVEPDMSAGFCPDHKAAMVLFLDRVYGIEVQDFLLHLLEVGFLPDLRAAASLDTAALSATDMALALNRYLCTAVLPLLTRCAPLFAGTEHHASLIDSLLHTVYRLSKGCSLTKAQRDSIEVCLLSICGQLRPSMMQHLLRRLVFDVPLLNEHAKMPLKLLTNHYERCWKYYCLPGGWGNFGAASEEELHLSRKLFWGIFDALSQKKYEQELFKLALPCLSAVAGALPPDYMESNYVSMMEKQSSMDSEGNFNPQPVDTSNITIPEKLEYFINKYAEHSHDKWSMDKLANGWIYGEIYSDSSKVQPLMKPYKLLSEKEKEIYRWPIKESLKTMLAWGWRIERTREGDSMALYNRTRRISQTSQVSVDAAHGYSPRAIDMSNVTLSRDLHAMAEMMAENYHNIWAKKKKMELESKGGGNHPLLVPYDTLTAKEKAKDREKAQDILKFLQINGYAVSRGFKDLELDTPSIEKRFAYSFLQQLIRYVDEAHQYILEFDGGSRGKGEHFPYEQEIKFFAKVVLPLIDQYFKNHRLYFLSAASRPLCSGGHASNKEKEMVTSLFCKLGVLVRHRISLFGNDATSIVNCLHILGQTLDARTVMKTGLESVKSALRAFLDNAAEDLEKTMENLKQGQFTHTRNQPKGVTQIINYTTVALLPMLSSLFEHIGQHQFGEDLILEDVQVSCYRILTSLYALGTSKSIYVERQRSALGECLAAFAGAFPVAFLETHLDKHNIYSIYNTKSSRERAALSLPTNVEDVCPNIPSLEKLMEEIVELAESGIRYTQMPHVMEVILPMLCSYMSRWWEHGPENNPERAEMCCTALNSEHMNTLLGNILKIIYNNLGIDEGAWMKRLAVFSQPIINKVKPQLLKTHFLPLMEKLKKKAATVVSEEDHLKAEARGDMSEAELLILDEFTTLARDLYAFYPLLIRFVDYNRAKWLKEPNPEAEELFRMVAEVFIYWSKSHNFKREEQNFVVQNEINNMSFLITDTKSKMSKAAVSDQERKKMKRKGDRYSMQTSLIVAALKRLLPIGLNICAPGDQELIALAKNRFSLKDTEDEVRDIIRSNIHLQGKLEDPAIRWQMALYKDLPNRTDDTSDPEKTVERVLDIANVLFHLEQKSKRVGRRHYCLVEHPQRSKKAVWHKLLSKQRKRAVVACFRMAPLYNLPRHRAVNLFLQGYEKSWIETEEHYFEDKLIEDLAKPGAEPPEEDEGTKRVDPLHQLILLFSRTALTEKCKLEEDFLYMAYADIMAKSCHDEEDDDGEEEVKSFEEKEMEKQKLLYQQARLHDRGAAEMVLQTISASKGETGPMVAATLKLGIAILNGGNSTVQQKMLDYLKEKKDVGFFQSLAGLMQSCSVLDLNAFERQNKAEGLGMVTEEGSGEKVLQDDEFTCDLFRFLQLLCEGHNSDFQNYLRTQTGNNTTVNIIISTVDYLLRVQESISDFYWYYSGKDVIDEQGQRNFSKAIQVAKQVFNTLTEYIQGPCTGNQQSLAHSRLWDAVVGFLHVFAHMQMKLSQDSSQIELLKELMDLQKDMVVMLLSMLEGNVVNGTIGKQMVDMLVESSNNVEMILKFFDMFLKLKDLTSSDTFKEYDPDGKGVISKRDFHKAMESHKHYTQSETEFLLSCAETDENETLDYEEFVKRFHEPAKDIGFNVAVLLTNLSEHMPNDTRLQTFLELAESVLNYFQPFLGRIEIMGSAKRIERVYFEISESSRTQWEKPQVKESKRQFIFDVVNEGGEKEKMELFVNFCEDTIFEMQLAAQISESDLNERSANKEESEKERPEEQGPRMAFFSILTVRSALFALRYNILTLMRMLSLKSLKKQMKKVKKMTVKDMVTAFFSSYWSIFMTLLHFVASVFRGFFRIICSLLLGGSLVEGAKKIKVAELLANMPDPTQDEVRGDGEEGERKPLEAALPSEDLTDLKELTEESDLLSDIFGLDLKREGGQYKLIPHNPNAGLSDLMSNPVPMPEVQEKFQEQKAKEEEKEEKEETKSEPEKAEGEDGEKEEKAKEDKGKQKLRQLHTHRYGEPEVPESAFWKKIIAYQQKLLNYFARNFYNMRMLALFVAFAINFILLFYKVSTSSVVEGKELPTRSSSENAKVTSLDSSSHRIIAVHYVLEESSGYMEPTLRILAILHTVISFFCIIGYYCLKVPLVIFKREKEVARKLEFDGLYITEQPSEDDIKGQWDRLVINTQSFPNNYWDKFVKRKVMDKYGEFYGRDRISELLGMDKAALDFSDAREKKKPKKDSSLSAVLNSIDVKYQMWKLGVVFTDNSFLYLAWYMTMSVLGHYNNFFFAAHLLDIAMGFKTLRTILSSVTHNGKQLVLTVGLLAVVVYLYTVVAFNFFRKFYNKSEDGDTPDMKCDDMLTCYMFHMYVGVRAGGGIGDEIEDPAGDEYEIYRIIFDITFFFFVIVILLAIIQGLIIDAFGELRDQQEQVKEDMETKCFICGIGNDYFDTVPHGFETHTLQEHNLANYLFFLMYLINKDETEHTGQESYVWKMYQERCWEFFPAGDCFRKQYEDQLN

Target: T1, PKA-phosphorylated RyR2 (Homo sapiens, UniProt Q92736)
T1 construct: from tissue
Experiment: FKBP12.6 rebinding assay: FKBP12.6 binding to PKA-phosphorylated RyR2 in cardiac SR
Procedure: Samples are centrifuged at 95,000 g for 10 min and the pellets are washed three times in 0.2 ml imidazole buffer. The final pellets are pooled and resuspended in imidazole buffer (final concentration≈10 μg/μl). […] Samples then are centrifuged at 100,000 g for 10 minutes and pellets washed 3 times with imidizol buffer. […] Immunoblots are developed using an anti-FKBP antibody (1:3,000 dilution). […] The intracellular solution contains (in mM): CsCl, 60; CaCl2, 1; EGTA, 11; MgCl2, 1; K2ATP, 5; HEPES, 10; aspartic acid, 50; pH 7.4 (CsOH). Under these conditions, it is expected that the measured current was carried by Ba^2+ primarily through L-type calcium channels which is referred to as ICa,L. Drugs are applied by a local solution changer and reach the cell membrane within 1 s.
The FKBP12.6 rebinding assay described above is used to determine the amount of FKBP12.6 binding to PKA-phosphorylated RyR2 at various concentrations (0.5-1000 nM) of the compounds shown. EC50 values are calculated using Michaelis-Menten curve fitting.
The EC50 values are calculated using Michaelis-Menten curve fitting.

COc1ccc2c(c1)CN(C)CCS2 [S107]
EC50: 190 nM
